From patent publication US6593357B1, “Pyrazole compositions useful as inhibitors of ERK” (Vertex Pharmaceuticals Incorporated, priority 2000, dated 2003)

Protein sequences, listed by entry. Tags and fused reporters are not part of them.
UniProt P28482, whole entry: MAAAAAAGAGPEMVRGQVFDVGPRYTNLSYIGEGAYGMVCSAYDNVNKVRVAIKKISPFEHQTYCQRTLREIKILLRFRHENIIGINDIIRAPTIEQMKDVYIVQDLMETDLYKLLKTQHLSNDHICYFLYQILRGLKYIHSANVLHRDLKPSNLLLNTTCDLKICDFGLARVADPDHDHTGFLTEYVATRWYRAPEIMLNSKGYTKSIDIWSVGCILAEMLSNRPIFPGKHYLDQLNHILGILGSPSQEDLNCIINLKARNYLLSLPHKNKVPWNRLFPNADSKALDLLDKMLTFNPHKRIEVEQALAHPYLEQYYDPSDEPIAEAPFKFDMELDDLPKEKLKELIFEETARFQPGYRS

Target: ERK2 (Homo sapiens, UniProt P28482)
Test: ERK2 inhibition, spectrophotometric coupled-enzyme assay
Type: biochemical
Settings: activated ERK2 10 nM, 65 μM ATP, 30° C., pH 7.5; read-out: ERK2 Inhibitory Activity (Ki class)

COc1cccc(-c2cn[nH]c2-c2c[nH]c(C(=O)NC(C)C)c2)c1 [II-28]
Ki: < 1000 nM
